22 compounds from patent US20260123631A1, “NATURAL PORPHIN SALT AND USE THEREOF AS PLANT GROWTH REGULATOR AND PLANT IMMUNITY INDUCER” (NANJING BOSTEC BIOLOGICAL ENGINEERING CO., LTD, priority 2022, published 2026) can be followed below.

Series [1] in a line: Stability of sample solutions in the dark/under light. The method, then: Determination: An appropriate amount of a salt sample was taken, dissolved with water, and diluted to prepare a test solution with a concentration of about 10 ppm. An acidic reference substance (extremely-insoluble in water) was prepared with a 30% to 50% ethanol aqueous solution into a test solution with a concentration of about 10 ppm.
Each test solution was scanned by an ultraviolet spectrophotometer (at 0 h) for absorbance in a range of 200 nm to 800 nm immediately after being prepared. Then a test solution of each sample was divided into two parts. One part was placed at room temperature of 25° C. in the dark, and the other part was placed under light with a light intensity of 30,000 lux. At 1 h, 2 h, and 3 h, a solution sample was collected and scanned for absorbance respectively.
An absorbance value of a maximum absorption peak at 0 h (starting) of each test solution was set as a relative content of 100%, and a ratio of an absorbance value at each time point to the absorbance value at 0 h was calculated to determine a relative content, %.

Series [2] is described as follows: Water solubility of the prepared salts. The series is classed as physicochemical.
Where [3] appears, read: under light 30,000 lux, 1 h, salts in water, acidic reference in 30% to 50% ethanol.
[4] abbreviates: under light 30,000 lux, 2 h, salts in water, acidic reference in 30% to 50% ethanol.
Where [5] appears, read: under light 30,000 lux, 3 h, salts in water, acidic reference in 30% to 50% ethanol.

Where “and” joins values, the source holds several entries; their conditions need not be identical. Equal values may be shown once. Read-outs that look alike come from different tables or passages of the source.

Take `C=CC1=C(C)c2cc3[n-]c(cc4nc(cc5[n-]c(cc1n2)c(C)c5C=C)C(C)=C4CCC(=O)[O-])c(CCC(=O)[O-])c3C.[Cl-].[Fe+3].[Mn+2]` [Example 15, manganese chlorhematin]: the Relative content in series [1] (setting [3]) stood at 83.39%.
With ammonium chlorin [Example 54], the solubility in water result in series [2] is given as “easily soluble”. Moreover, the results for the Relative content in series [1] (setting [3]), in series [1] (setting [4]) and in series [1] (setting [5]) were 52.19%, 47.37% and 41.33%, respectively.
ammonium hydroxyhematin [Example 63]: the solubility in water result in series [2] was “easily soluble”. The figures for the Relative content in series [1] (setting [3]), in series [1] (setting [4]) and in series [1] (setting [5]) were 75.37%, 64.41% and 61.27%, respectively.
For the compound ammonium iron chlorin [Example 22], the solubility in water result in series [2] was “easily soluble”. The results for the Relative content in series [1] (setting [3]), in series [1] (setting [4]) and in series [1] (setting [5]) were 63.54%, 61.41% and 55.37%, respectively.
For the compound “ammonium iron chlorophyllin [Example 31]”, the solubility in water result in series [2] is listed as “easily soluble”. Moreover, the Relative content is on record as 62.53% in series [1] (setting [3]), 58.11% in series [1] (setting [4]) and 51.07% in series [1] (setting [5]).
For the compound “ammonium iron hydroxychlorophyllin [Example 73]”, in series [2], the solubility in water entry is given as “easily soluble”. Moreover, the values for the Relative content in series [1] (setting [3]), in series [1] (setting [4]) and in series [1] (setting [5]) were 64.04%, 60.10% and 52.18%, respectively.
On to “ammonium zinc chlorophyllin [Example 35]”, for which the solubility in water result in series [2] was “easily soluble”. In addition, the Relative content came out at 56.43% in series [1] (setting [3]), 50.21% in series [1] (setting [4]) and 48.37% in series [1] (setting [5]).
As for calcium chlorin [Example 56], the solubility in water result in series [2] was “soluble”. Besides, the Relative content in series [1] (setting [3]) amounted to 51.17%; in series [1] (setting [4]), 48.34%; in series [1] (setting [5]) it was 42.83%.
Turning to “calcium copper chlorophyllin [Example 46]”, the solubility in water entry in series [2] is recorded as “soluble”. The results for the Relative content in series [1] (setting [3]), in series [1] (setting [4]) and in series [1] (setting [5]) were 75.63%, 70.42% and 64.38%, respectively.
On to calcium hydroxyhematin [Example 65], for which, in series [2], the solubility in water result is reported as “soluble”. For the same compound, the Relative content in series [1] (setting [3]) is recorded as 86.39%; in series [1] (setting [4]), 85.55%; in series [1] (setting [5]), 75.80%.
In the case of calcium iron chlorin [Example 24], the solubility in water result in series [2] is on record as “soluble”. Moreover, the Relative content in series [1] (setting [3]) is listed as 76.78%; in series [1] (setting [4]), 67.79%; in series [1] (setting [5]), 60.67%.
As to “calcium iron hydroxychlorophyllin [Example 75]”, the solubility in water entry in series [2] is reported as “soluble”. In addition, the Relative content in series [1] (setting [3]) stood at 81.89%; in series [1] (setting [4]), 74.32%; in series [1] (setting [5]), 62.43%.
As for calcium zinc chlorophyllin [Example 37], in series [2], the solubility in water result is reported as “soluble”. In addition, the Relative content in series [1] is 60.41% and 48.22% and 42.39%.
With iron chlorin [reference compound], the “Half-life t1/2 for relative content” value in series [1] came out at 0.73 h.
Consider magnesium chlorin [Example 55], for which the solubility in water entry in series [2] is reported as “soluble”.
The same measure, in the same setting: the value for “magnesium copper chlorophyllin [Example 45]” was “soluble”; that for magnesium hydroxyhematin [Example 64] was “soluble”; that for magnesium iron chlorin [Example 23] was “soluble”.
Take “magnesium iron hydroxychlorophyllin [Example 74]”: the solubility in water entry in series [2] was “soluble”.
In the case of “magnesium zinc chlorophyllin [Example 36]”, the solubility in water entry in series [2] was “soluble”.
As for “manganese zinc chlorophyllin [Example 40]”, in series [2], the solubility in water result is on record as “slightly soluble”. In addition, the Relative content in series [1] is 58.33% and 50.00% and 44.70%.
With sodium iron chlorin [Example 21], the “Half-life t1/2 for relative content” value in series [1] was 3.41 h.
